The numbers were not newly measured in publication PMC6175296 (Clinical Pharmacology and Therapeutics, 2017), which cites them from elsewhere.

The test system of this data set is UGT1A3. As to conditions: up; depending on UGT1A3 genotype; cited from earlier work.

In the case of `CC(C)(O)c1ccccc1CC[C@@H](SCC1(CC(=O)O)CC1)c1cccc(/C=C/c2ccc3ccc(Cl)cc3n2)c1` [Montelukast], the “share of metabolism accounted for by UGT1A3” value is given as 35–60%.
